The values below are quoted from earlier work in patent publication US6887842B1, “Modulating a pharmacokinetic property of a drug by administering a bifunctional molecule containing the drug” (The Board of Trustees of the Leland Stanford Junior …, priority 1999, dated 2005).

Sequences of proteins named here, by UniProt entry; tags and fusion partners are left off. Residues count along the entry.
UniProt P02768, 25-609, species assumed: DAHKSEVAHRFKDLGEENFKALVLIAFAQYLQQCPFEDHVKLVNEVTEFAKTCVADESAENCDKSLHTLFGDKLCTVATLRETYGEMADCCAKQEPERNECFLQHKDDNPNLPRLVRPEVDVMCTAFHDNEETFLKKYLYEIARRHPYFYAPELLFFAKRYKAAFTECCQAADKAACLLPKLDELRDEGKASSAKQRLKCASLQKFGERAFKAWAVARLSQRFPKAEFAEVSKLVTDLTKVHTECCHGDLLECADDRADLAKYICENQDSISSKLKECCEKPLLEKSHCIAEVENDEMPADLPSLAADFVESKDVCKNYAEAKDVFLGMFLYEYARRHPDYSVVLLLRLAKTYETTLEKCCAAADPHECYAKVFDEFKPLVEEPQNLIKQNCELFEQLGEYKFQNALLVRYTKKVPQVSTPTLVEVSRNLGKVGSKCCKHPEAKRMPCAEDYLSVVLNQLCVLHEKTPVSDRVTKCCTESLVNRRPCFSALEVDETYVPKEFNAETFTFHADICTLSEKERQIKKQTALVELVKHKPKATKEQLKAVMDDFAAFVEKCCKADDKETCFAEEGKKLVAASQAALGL

Molecules are shown by their SMILES.

The data set addresses albumin (Homo sapiens, UniProt P02768). The following applies: read-out: affinity for albumin.

As for `CN(C)CCCN1c2ccccc2Sc2ccc(Cl)cc21` [chlorpromazine], the Kd is 5 µM.
